Reference: ChEMBL document CHEMBL1127434, “Discovery of nanomolar ligands for 7-transmembrane G-protein-coupled receptors from a diverse N-(substituted)glycine peptoid library” (J Med Chem, 1994)

Sequences of proteins named here, by UniProt entry; tags and fusion partners are left off. A change or cut given only in a name is not applied to a line headed by its entry.
UniProt P15823: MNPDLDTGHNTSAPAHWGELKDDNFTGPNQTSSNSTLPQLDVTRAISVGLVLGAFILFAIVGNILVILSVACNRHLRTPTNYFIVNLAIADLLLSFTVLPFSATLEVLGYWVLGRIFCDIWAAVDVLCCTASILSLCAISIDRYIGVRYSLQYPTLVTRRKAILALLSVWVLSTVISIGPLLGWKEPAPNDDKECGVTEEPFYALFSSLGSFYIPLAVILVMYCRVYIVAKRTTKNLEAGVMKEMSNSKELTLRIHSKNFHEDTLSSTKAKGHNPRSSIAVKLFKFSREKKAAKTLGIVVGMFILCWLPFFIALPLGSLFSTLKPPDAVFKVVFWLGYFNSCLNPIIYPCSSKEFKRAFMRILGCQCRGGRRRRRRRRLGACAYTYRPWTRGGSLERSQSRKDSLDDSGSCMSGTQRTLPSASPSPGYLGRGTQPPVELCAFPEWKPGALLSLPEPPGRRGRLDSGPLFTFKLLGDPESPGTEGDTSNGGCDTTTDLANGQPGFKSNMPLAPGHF
UniProt P23944: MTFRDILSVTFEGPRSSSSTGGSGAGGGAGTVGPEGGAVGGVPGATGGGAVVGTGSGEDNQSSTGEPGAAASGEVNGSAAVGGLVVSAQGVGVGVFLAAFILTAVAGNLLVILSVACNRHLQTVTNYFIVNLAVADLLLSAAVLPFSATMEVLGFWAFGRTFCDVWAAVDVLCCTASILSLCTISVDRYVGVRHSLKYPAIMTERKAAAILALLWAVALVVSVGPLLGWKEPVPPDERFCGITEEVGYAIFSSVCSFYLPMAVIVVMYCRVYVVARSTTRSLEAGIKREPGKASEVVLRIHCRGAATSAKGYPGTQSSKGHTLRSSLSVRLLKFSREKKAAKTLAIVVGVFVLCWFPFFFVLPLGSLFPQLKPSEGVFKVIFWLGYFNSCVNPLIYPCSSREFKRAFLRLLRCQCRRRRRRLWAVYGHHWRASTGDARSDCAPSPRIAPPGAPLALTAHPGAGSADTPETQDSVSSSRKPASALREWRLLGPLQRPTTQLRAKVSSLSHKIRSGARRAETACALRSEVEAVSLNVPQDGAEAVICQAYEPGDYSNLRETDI
UniProt P43140: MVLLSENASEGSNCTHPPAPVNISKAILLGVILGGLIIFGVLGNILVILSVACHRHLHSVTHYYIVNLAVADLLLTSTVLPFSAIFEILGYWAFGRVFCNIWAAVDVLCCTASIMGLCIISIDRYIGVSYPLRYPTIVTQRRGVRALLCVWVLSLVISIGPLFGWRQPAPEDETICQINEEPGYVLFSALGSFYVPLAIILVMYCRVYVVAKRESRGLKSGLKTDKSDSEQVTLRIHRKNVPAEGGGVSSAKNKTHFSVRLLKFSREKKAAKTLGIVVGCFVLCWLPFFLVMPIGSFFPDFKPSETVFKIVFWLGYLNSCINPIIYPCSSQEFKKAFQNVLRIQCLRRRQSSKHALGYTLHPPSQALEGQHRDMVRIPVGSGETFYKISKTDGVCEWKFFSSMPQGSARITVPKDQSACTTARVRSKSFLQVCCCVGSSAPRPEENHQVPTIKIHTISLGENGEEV

Target: Adrenergic receptor alpha-1 (Rattus norvegicus, UniProt P15823+P23944+P43140)

Ki: 14 µM
SMILES: CNC[C@H](O)c1ccc(O)c(O)c1 [EPINEPHRINE]
